Results published in ChEMBL document CHEMBL3425420 (J Med Chem, 2015).

Amino acid sequences for entries named in this document (tags omitted).
UniProt Q07817, whole entry: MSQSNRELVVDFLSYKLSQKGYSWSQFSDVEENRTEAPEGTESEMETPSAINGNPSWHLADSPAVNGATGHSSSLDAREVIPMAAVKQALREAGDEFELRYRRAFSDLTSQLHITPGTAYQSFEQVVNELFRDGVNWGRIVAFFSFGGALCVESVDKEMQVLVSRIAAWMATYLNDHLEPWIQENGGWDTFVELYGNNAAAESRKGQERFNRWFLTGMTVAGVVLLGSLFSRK
UniProt P10415, whole entry: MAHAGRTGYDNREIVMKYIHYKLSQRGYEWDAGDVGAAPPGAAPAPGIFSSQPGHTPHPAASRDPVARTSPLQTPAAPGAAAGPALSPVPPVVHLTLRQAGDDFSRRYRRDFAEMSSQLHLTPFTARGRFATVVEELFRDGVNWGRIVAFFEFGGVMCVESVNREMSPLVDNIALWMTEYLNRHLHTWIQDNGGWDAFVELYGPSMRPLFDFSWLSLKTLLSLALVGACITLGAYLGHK

Tests used:
Bcl-2-like protein 1 = Bcl-2-like protein 1 (Homo sapiens, UniProt Q07817); assay: Displacement of FITC-Bak-BH3 peptide from Bcl-xL (unknown origin) incubated for 1.5 hrs by FPA competition assay
Method in brief: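 4 nM Bcl-xL with 10 nM FITC-Bak-BH3 peptide in 20 mM TRIS pH 7.5, 50 mM NaCl, 3 mM DTT, 5% final DMSO. Compounds were added as a 10-point, 3-fold serial dilution and incubated 1.5 h at room temperature. IC50 came from a four-parameter fit of the anisotropy change, was converted to Ki, and duplicate values were averaged.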

[1] = target: Apoptosis regulator Bcl-2 (Homo sapiens, UniProt P10415); assay: Displacement of FITC-Bak-BH3 peptide from Bcl-2 (unknown origin) incubated for 1.5 hrs by FPA competition assay
Method in brief: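 Compounds were added as a 10-point, 3-fold serial dilution and incubated 1.5 h at room temperature. The anisotropy change was fitted to a four-parameter variable-slope curve for IC50, converted to Ki, and duplicates were averaged.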

| SMILES | Ki (Bcl-2-like protein 1) | Ki [1] |
| --- | --- | --- |
| O=C(O)c1c(CCOc2cccc3ccccc23)c2cccc3c2n1CCS3 | 9 µM | – |
| O=C(O)c1c(CCCOc2cccc3ccccc23)c2cccc3c2n1CCC3 | – | 7.3 µM |
| O=C(O)c1c(CCCOc2cccc3ccccc23)c2cccc3c2n1CCO3 | – | 5.7 µM |
| O=C(O)c1c(CCCOc2cccc3c2CCCC3)c2cccc3c2n1CCS3 | – | 3.7 µM |
| Cc1cc(OCCCc2c(C(=O)O)n3c4c(cccc24)CCC3)cc(C)c1Cl | 7.8 µM | – |
| Cc1cc(OCCCc2c(C(=O)O)n3c4c(cccc24)SCCC3)cc(C)c1Cl | – | 3.7 µM |
| Cc1cc(OCCCc2c(C(=O)O)n3c4c(c(Cl)ccc24)CCC3)cc(C)c1Cl | – | 0.77 µM |
| Cc1cc(OCCCc2c(C(=O)O)n3c4c(c(Cl)ccc24)OCC3)cc(C)c1Cl | – | 1.3 µM |
